Data set [1] has as its system GLUT4. The experiment in a line: Western analysis of GLUT4 in adipose and muscle tissue (Example 15). To be noted: treated versus untreated mice.
Data set [2] relates to ApoE -/- mice. The experiment in a line: Glucose tolerance testing (GTT) in ApoE -/- mice on 60% high fat diet (Example 15). The settings on record: versus control.
The test system of data set [3] is Th40 cells. Put plainly: Cytokine production of splenic lymphocytes treated in vitro, flow cytometry (Example 16). To be noted: 24 hours in vitro, varying concentrations, Brefeldin A for 4 hours.
Data set [4] relates to ApoE deficient mice. Put plainly: Atherosclerosis of the aortic arch in ApoE deficient mice on normal chow diet (Example 9). To be noted: for atherosclerosis: ApoE deficient mice.
Data set [5] has as its system ApoE -/- mice. Put plainly: Atherosclerosis in ApoE -/- mice on high fat diet: en-face Sudan IV, Paigen method, trichrome (Example 13). The settings on record: 1mg/kg IV once a week for 4 weeks, versus control.
Data set [6] deals with NOD mice. The experiment in a line: Prevention of diabetes in NOD mice by CD154 peptides (Example 1). To be noted: 25 ug (1mg/kg) weekly into the tail vein from 6 weeks of age, diabetes = blood glucose greater than 250 mg/dL for three consecutive days.
For data set [7] the following is noted: lethargy, rash, fatigue, anemia, hyperglycemia, hypocalcemia, coagulapathies, neutropenia, renal and hepatic complications; cited from earlier work.
For data set [8], the system named is ApoE-/- mice. Put plainly: Existing plaque in ApoE-/- mice treated from 20 weeks of age (Example 10). The settings on record: versus control.
The subject of data set [9] is whole human blood. Put plainly: Clot study in whole human blood (Example 11). To be noted: dosing levels similar to the murine studies.
In data set [10] the test system is NOD mice. The experiment in a line: Reversal of hyperglycemia in newly diabetic NOD mice (Example 2). To be noted: already diabetic NOD mice, 100 ug intravenously then weekly injections for ten weeks.
Data set [11] concerns CD4+ and CD8+ cells. The experiment in a line: CD4/CD8 ratio in blood of treated NOD mice by flow cytometry (Example 1). A general note: Flow cytometry measures light scatter and fluorescence of single cells or particles in a stream.
The subject of data set [12] is NOD mice. The experiment in a line: Reversal of hyperglycemia and insulin granulation of the pancreas in diabetic NOD mice (Example 5). To be noted: six weeks after reversal of hyperglycemia, aldehyde/fuschsin stain, versus irrelevant peptide.
Data set [13] concerns blood cells. The experiment in a line: Binding of biotin-conjugated 15-mer peptide to whole blood cells, HRP-avidin, absorbance at 405 nm (Example 4). The settings on record: patients having type-I diabetes versus non-diabetic controls.
[14] abbreviates: 1mg/kg IV once a week for 4 weeks from 20 weeks of age.
[15] abbreviates: 1mg/kg IV once a week for 4 weeks.

Regarding `C[C@H](N)C(=O)N[C@@H](CCCCN)C(=O)N[C@@H](CCCCN)C(=O)NCC(=O)N[C@@H](Cc1ccc(O)cc1)C(=O)N[C@@H](Cc1ccc(O)cc1)C(=O)O`, in data set [1], the “expression of the GLUT4 protein in muscle tissue” value was “increased expression” and the “expression of the glucose transport protein (GLUT4) in white adipose tissue” value is “increase in expression”. In addition, in data set [2] (1mg/kg (weekly via I.V. injection), 6 hours fasting, 1g/kg glucose intraperitoneal), the glucose tolerance entry is recorded as “significantly increased”. Besides, in data set [2] (1mg/kg, GTT), the insulin sensitivity result is recorded as “significantly improved” and the plasma insulin levels entry is reported as “lowered”. Also, the “inflammatory cytokine production of IL2, INFγ, and IL17a” value in [3] is “affects the inflammatory cytokine production”. The atherosclerosis entry in data set [4] is “abrogates atherosclerosis”. Besides, in data set [5] (high fat diet for 16 weeks), the “lesion areas, en-face Sudan IV stain” value is reported as “significant reduction in lesion areas”. Besides, the “plaque volume (area under the curve), Paigen method” value in data set [5] (high fat diet) is “reduction in plaque volume”.

In the case of VLQWAKKGYYTMK, the development of diabetes result in [6] is “had significant effects on the development of diabetes”.

Turning to `Cc1ccc(C(=O)Nc2ccc(S(=O)(=O)O)c3cc(S(=O)(=O)O)cc(S(=O)(=O)O)c23)cc1NC(=O)c1cccc(NC(=O)Nc2cccc(C(=O)Nc3cc(C(=O)Nc4ccc(S(=O)(=O)O)c5cc(S(=O)(=O)O)cc(S(=O)(=O)O)c45)ccc3C)c2)c1`, the toxicities entry in data set [7] was “numerous reversible toxicities”.

Turning to VLQWAKKGYYTMKSN, in data set [8] (setting [14]), the “number of advanced plaques” value was “reduced” and the “number of individual early plaques” value is “reduced”. In addition, in [8] (setting [15]), the “average cap width (cap size)” value is on record as “greater” and the “average core width (core size/plaque size)” value is “decreased”. Besides, the “clotting of whole human blood” value in data set [9] is reported as “does not modify or change the clotting of whole human blood significantly outside of normally recognized levels”. Besides, the hyperglycemia entry in data set [10] is reported as “can reverse hyperglycemia”. The “compromise of the immune system, as determined by the CD4/CD8 ratio” value in data set [11] was “did not result in compromise of the immune system”. In addition, the development of diabetes entry in data set [6] was “prevented the onset of diabetes”. The “insulin granules of the pancreas” value in [12] is reported as “preserved insulin granules in the majority of the mice”. For the same molecule, the “total area of the 2.5 mm segment of the lesser curvature of the aortic arch” value in data set [4] (1mg/kg IV three times a week from 9 weeks of age, versus control) is given as “substantially reduced”. The atherosclerosis result in data set [4] is “abrogates atherosclerosis”. In addition, the “total number of plaque” value in data set [4] (within the 2.5mm segment, 1mg/kg IV three times a week, versus control) is “significantly decreased”. The “15-mer peptide binding activity of blood cells” value in data set [13] is recorded as “higher 15-mer peptide binding activity than cells from non-diabetic controls”.
